In test [1] the target is FGFR1 (Homo sapiens, UniProt P11362). Put plainly: Inhibition of receptor tyrosine kinase activity at molecular level (ELISA, Poly(Glu,Tyr)4:1 substrate phosphorylation). Format: biochemical. The note with it: 10 nM compound; average of two independent experiments. As for the experimental part: (§1) Enzyme reaction substrate Poly(Glu, Tyr)4:1 was diluted with potassium-free PBS (10 mM sodium phosphate buffer, 150 mM NaCl, pH 7.2-7.4) to 20 μg/mL. […] The reaction was conducted under 37° C. for 12-16 hours. After the liquid was removed from the wells, the plate was washed three times with 200 μL/well of T-PBS (PBS containing 0.1% Tween-20), each for 5 minutes. The enzyme plate was dried in 37° C. dryer for 1-2 hours.
(§2) 50 μL ATP solution diluted with buffer (50 mM HEPES pH 7.4, 50 mM MgCl2, 0.5 mM MnCl2, 0.2 mM Na3VO4, 1 mM DTT) to a final concentration of 5 μM was added into each well. The compound was diluted with DMSO to a suitable concentration (1 μL/well) or the well contained the corresponding concentration of DMSO (negative control well) Then various kinase recombinant proteins diluted with 49 μL of reaction buffer was added to initiate the reaction. Each experiment required duplicate enzyme-free control well. The reaction was carried out for 1 hour on a 37° C. Shaker (100 rpm). The plate was washed three times with T-PBS. […] The reaction was quenched with 2M H2SO4 (50 μL/well), and read at 490 nm using a tunable microplate reader SPECTRA MAX 190.
(§3) The inhibition ratio of the sample was determined by the following formula: […]
(§4) The IC50 values were obtained via four-parameter regression analysis using the software supplied with the microplate reader.
A general note: An ELISA detects its analyte on a solid surface through an enzyme-linked reagent.

Amino acid sequences for entries named in this document (tags omitted). Residues count along the entry.
UniProt P11362, 22-822: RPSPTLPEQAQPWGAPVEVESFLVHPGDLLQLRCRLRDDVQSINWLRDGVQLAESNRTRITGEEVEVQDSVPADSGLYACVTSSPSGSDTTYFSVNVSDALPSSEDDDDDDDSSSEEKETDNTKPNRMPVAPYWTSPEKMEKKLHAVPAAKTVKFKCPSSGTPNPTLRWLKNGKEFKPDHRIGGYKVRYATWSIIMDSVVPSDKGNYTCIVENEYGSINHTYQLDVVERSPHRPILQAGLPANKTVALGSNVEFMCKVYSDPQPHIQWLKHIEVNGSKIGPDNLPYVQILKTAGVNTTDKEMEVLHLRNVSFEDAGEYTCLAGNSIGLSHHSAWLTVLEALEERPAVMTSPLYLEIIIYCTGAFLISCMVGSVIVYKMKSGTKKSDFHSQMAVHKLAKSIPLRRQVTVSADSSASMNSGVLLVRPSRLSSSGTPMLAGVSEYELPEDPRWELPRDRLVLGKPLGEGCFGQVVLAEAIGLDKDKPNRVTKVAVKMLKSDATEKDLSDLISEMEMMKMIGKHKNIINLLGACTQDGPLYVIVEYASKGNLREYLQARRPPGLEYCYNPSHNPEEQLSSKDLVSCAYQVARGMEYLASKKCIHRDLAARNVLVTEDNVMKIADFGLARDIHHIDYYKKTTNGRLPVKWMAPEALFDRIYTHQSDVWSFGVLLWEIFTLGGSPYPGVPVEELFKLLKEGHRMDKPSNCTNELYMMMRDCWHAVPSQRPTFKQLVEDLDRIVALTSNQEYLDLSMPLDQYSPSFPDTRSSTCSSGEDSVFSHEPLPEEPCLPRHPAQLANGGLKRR
UniProt P35968, 20-1356: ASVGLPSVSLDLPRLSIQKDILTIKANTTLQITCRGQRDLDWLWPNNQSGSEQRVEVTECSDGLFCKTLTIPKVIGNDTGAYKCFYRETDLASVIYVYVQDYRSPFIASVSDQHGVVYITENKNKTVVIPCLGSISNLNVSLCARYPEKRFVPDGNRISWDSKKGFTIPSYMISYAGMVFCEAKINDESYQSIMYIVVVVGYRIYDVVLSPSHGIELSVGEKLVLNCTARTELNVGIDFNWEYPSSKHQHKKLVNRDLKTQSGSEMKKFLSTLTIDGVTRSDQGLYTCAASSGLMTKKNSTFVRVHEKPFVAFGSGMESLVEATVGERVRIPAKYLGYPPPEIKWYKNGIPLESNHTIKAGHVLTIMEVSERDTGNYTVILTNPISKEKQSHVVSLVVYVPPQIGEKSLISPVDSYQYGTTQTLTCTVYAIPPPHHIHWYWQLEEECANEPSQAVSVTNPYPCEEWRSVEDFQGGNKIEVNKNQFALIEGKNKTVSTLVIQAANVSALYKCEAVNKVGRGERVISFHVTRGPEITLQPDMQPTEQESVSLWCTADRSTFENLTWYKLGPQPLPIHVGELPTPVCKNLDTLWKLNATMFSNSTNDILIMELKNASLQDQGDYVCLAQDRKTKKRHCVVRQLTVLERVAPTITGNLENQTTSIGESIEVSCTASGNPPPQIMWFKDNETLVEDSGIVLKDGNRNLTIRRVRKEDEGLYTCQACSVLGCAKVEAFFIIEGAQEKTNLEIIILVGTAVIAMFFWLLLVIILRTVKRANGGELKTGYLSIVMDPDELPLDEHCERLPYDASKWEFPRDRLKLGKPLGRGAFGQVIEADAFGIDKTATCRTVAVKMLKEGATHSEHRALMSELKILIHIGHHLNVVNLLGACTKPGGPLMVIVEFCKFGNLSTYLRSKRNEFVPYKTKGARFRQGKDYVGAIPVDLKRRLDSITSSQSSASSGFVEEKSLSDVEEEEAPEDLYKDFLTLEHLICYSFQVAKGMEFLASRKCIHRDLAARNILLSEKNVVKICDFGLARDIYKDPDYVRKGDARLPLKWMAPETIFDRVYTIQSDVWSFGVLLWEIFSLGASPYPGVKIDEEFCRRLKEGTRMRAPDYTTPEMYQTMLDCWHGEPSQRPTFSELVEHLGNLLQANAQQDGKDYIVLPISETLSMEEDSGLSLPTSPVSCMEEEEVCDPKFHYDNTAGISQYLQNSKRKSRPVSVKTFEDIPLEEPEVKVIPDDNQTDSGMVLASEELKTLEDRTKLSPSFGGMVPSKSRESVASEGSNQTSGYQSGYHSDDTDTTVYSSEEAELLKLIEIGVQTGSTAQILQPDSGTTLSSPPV

For test [2], the target named is KDR (Homo sapiens, UniProt P35968). The test is described as above. In kind it is biochemical. The following applies: 10 nM compound; average of two independent experiments. As to the method:
as §1, §2, §3, §4

Turning to `C[C@@H](Oc1ccc2[nH]nc(/C=C/c3cnn(CCO)c3)c2c1)c1c(Cl)cncc1Cl` [LY2874455, reference compound], the “10 nM inhibition ratio FGFR1” value in test [1] was found to be 97.5. Further, the “10 nM inhibition ratio KDR” value in test [2] turned out to be 91.6.

The values above are taken from US10988456B2, “O-aminoheteroaryl alkynyl-containing compound, preparation method therefor, and use thereof” (SHANGHAI INSTITUTE OF MATERIA MEDICA, CHINESE ACADEMY OF …, priority 2017, dated 2021).
